# Values quoted from earlier work, collected in US20040247524A1, “Method of treatment of an inflammatory disorder with a Vanin-1 antagonist” (priority 2003, published 2004).
# System: Vanin-1
# Conditions: cited from earlier work
smiles,measurement,value
CC(C)(CO)[C@@H](O)C(=O)NCCC(=O)NCCSSCCNC(=O)CCNC(=O)[C@H](O)C(C)(C)CO [pantethine],type of Vanin-1 (pantetheinase) inhibition,reversible inhibition
